For 100 molecules, inhibition results are on record in PubChem BioAssay AID1656 (Sanford-Burnham Center for Chemical Genomics, 2009).

Several values for one entry are separate records, joined by “and”; a condition that tells them apart may be missing. Equal values may be shown once. This is a selection; strong and weak results do not stand in their true shares. Some salts and complexes are drawn in separate pieces, as the source files them; their charges need not balance. Activity calls are given as the source filed them.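 The calls were made as follows: active = lipid droplet intensity inhibited by at least 50%, with more than 500 cells counted; inconclusive = wells with under 300 cells, treated as cytotoxic; inactive = the rest.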

The assay is described as follows: oleate-induced lipid droplet accumulation in AML12 cells – imaging, high-throughput imaging, BODIPY stain, primary screen (AID 1656). Conditions: AML12 mouse hepatocytes, oleate lipid droplets, at 6.5 µM, stronger effect = higher value.
On to `O=[As](O)(c1ccccc1)c1ccc(O)cc1`, for which the inhibition is inactive: -18.2%. The value for `Cc1cc(-c2cccc3ccccc23)c(C)cn1.O=[N+]([O-])c1cc([N+](=O)[O-])c(O)c([N+](=O)[O-])c1` was inactive: -3.2%; that for `O=[N+]([O-])c1cc([N+](=O)[O-])c(NCC2CCS(=O)(=O)C2)c([N+](=O)[O-])c1` (stereo not given) was inactive: -22.4%. In the case of `O=[N+]([O-])c1ccc(O)c(/C=N/Nc2ccc([N+](=O)[O-])cc2[N+](=O)[O-])c1` it was inactive: -0.7%; in that of `O=[N+]([O-])c1ccc(OP2(=O)COCCO2)cc1` (stereo not given), inactive: 20.8%. In the case of `CC(=O)NC(SC(=S)N(C)C)C(Cl)(Cl)Cl` (stereo not given) it was inactive: -1.6%.

As for `O=[N+]([O-])c1ncn(CCn2cnc([N+](=O)[O-])n2)n1`, the inhibition was inactive: -3.2%. In the case of `O=C(OC1CN2CCC1CC2)c1cccc(Cl)c1` (stereo not given) it was inactive: 4.7%. In the case of `C(Cc1nn[nH]n1)Cc1nn[nH]n1`, the inhibition was inactive: 8.1%. As to `Nc1ccc([As](=O)(O)c2ccc([N+](=O)[O-])cc2)cc1`, the inhibition is inactive: -3.1%. For the molecule `O=P(Nc1ccccn1)(c1ccc(Br)cc1)c1ccc(Br)cc1`, the inhibition was inactive: -0.9%. In the case of `CN(C)C1(CNC(=O)c2ccc(Cl)c(S(N)(=O)=O)c2)CCCCC1` it was inactive: 9.8%; in that of `COc1ccc(NP(C)(=O)Oc2ccccc2OC)cc1` (stereo not given), inactive: -14.8%.

For the molecule `CN(C)CCOC(=O)C(O)(c1ccccc1)C1CCCCC1` (stereo not given), the inhibition is inactive: -13.7%. Take `O=P(Nc1nc2ccccc2s1)(c1ccccc1)c1ccccc1`: the inhibition was inactive: -3.3%. In the case of `C[C@H]1OP(=O)(Oc2ccccc2)[C@H](O)[C@H](O)[C@H]1N=[N+]=[N-]` (stereo not given in full) it was inactive: -0.7%; in that of `CP(=O)(Nc1ccc2c(c1)OCCO2)Oc1ccccc1` (stereo not given), inactive: 2.4%. The value for `Cc1ccccc1NP(C)(=O)Nc1ccccc1C` was inactive: -0.3%; that for `CC(C)C(=O)NC(Sc1ccccc1)C(Cl)(Cl)Cl` (stereo not given) was inactive: -42.9%; that for `O=P(Nc1nccs1)(c1ccccc1)c1ccccc1` was inactive: 15.2%. The value for `CP(=O)(Nc1ccc(SC(F)(F)F)cc1)Oc1ccc(F)cc1` (stereo not given) was inactive: -32%; that for `c1nnnn1CCn1cnnn1` was inactive: 8.8%. With `CCOP(C)(=S)SCC(=O)NC(C)(CC)C(=O)O` (stereo not given), the inhibition is inactive: 21.7%.

As for `O=C(OCCN1CCN(CCOCc2ccccc2)CC1)C(O)(c1ccccc1)c1ccccc1`, the inhibition is inactive: -4.5%. As to `C[C@H]1OP(=O)(Oc2ccccc2)C[C@@H]2O[C@@H]21` (stereo not given in full), the inhibition is inactive: -17.4%.

For the molecule `C[C@@H]1C=CCP(=O)(Oc2ccccc2)O1` (stereo not given in full), the inhibition is inactive: -11.7%.

`O=C(OC1CN2CCC1CC2)c1ccc([N+](=O)[O-])cc1` (stereo not given): the inhibition was inactive: -51.8%.

With `CC(=O)Nc1ccc([As](=O)(O)O)c(O)c1`, the inhibition was inactive: -3.5%. `COc1ccc2c(c1O)-c1c(O)c(OC)cc3c1[C@H](C2)[N+](C)(C)CC3.O=[N+]([O-])c1cc([N+](=O)[O-])c([O-])c([N+](=O)[O-])c1[O-]`: the inhibition is inactive: -31%. Take `CC(=O)Nc1ccc(Oc2c([N+](=O)[O-])cc([N+](=O)[O-])cc2[N+](=O)[O-])cc1`: the inhibition was inactive: 5.6%.

Take `O=P1(Nc2nc3ccc(Cl)cc3s2)COc2ccccc2O1` (stereo not given): the inhibition was inactive: -10%.

With `CCOc1ccc(C2=NCC(CBr)S2)cc1` (stereo not given), the inhibition is inactive: -3.4%. `CC(C)(C)C(=O)NC(Sc1ccccc1)C(Cl)(Cl)Cl` (stereo not given): the inhibition was inactive: -5.3%.

Consider `CC(C)c1ccc(OP(C)(=O)Nc2ccc(SC(F)(F)F)cc2)cc1` (stereo not given), for which the inhibition is inactive: 13.8%. Regarding `CCN(CC)CCCOC(=O)C(O)(c1ccccc1)C1CCCCC1` (stereo not given), the inhibition was inactive: -11.1%.

Turning to `CC(=O)NC(SC(=S)N(CC(C)C)CC(C)C)C(Cl)(Cl)Cl` (stereo not given), the inhibition is inactive: 4.1%.

As for `Cc1ccc(OP(=O)(Nc2ccccn2)Oc2ccc(C)cc2)cc1`, the inhibition was inactive: 2.5%. On to `Cc1ccccc1OP(=O)(Nc1ccccn1)Oc1ccccc1C`, for which the inhibition was inactive: -13.1%. Regarding `O=[N+]([O-])c1cc([N+](=O)[O-])c(OC2CCCCC2O)c([N+](=O)[O-])c1` (stereo not given), the inhibition is inactive: 5.4%. With `O=c1c2cc([N+](=O)[O-])ccc2[nH]c2c([N+](=O)[O-])cc([N+](=O)[O-])cc12`, the inhibition is inactive: -14.5%.

With `CCCCCOc1ccc(NP(C)(=O)Oc2ccc(Cl)cc2Cl)cc1` (stereo not given), the inhibition is inactive: -9.4%. The value for `CN(C)C(=O)Oc1noc2ccccc12` was inactive: 15.7%. As for `c1ccc(-c2nn[nH]n2)c(-c2nn[nH]n2)c1`, the inhibition was inactive: -7.4%. The value for `Cc1ccc(NP(=O)(Oc2cccc(C)c2)Oc2cccc(C)c2)nc1` was inactive: -1.6%. As for `CCNC(=S)/N=C(\N)N[N+](=O)[O-]`, the inhibition was inactive: -25.4%.

On to `O=C(NC1CCS(=O)(=O)C1)NP(=S)(Oc1ccccc1)Oc1ccccc1` (stereo not given), for which the inhibition was inactive: 9.4%. In the case of `COc1ccc(OP(C)(=O)Nc2ccc(SC(F)(F)F)cc2)cc1` (stereo not given) it was inactive: -18.2%. On to `CCOC(=O)c1ccc(NP(C)(=O)Oc2ccc(F)cc2)cc1` (stereo not given), for which the inhibition is inactive: 16.5%. For the molecule `O=[N+]([O-])c1cc([N+](=O)[O-])c(CCN2CCOCC2)c([N+](=O)[O-])c1`, the inhibition was inactive: -8.8%. The value for `Nc1cccc2ccc([As](=O)(O)O)cc12` was inactive: 2.4%.

In the case of `CP(=O)(Nc1ccc(Cl)cc1Cl)Oc1ccccc1` (stereo not given), the inhibition is inactive: -2.8%. As for `CP(=O)(OCCOc1ccccc1)OCCOc1ccccc1`, the inhibition is inactive: 3.6%. The value for `CCN(N=Nc1nonc1N)c1nonc1N` was inactive: 21.2%; that for `O=P(Nc1nc2ccc(Cl)cc2s1)(c1ccccc1)c1ccccc1` was inactive: 0.9%. With `Cc1cc(C)cc(OP(C)(=O)Nc2cccc(C(F)(F)F)c2)c1` (stereo not given), the inhibition is inactive: -1.2%. For the molecule `CC(=O)Nc1ccc([As](=O)(O)O)cc1`, the inhibition was inactive: 0.9%. As for `O=C(O)c1ccccc1[As](=O)(O)O`, the inhibition was inactive: 10.8%. On to `COc1ccc(OP(C)(=O)Nc2ccccc2Br)cc1` (stereo not given), for which the inhibition was inactive: -37.2%. Consider `Cc1cc(SC(NC(=O)c2ccc(F)cc2)C(Cl)(Cl)Cl)ncn1` (stereo not given), for which the inhibition was inactive: 2%. With `CCOP(=O)(Nc1ccccc1)OCC`, the inhibition was inactive: -0.3% and inactive: -14.8%.

For `Cc1ccc(NP(=O)(Oc2ccccc2F)Oc2ccccc2F)nc1`, the inhibition is inactive: 1.2%. Consider `Oc1ccccc1CNc1ccccn1`, for which the inhibition was inactive: 2.7%. The value for `O=C(NC(Sc1ccncn1)C(Cl)(Cl)Cl)c1ccccc1` (stereo not given) was inactive: -38.2%. In the case of `Nc1cc(N)c2nonc2c1[N+](=O)[O-]`, the inhibition is inactive: 16%.

With `O=[N+]([O-])c1cc([N+](=O)[O-])c(Nc2ccccn2)c([N+](=O)[O-])c1`, the inhibition is inactive: -25.3%. Regarding `CP(=O)(Nc1ccccn1)Oc1ccccc1` (stereo not given), the inhibition is inactive: -40.8%. The value for `COc1ccccc1OP(C)(=O)Nc1ccc(Br)cc1` (stereo not given) was inactive: 1.2%. As for `Cc1ccc(N/C(=N/P(=O)(N2CCOCC2)N2CCOCC2)N2CCOCC2)cc1`, the inhibition was inactive: 3.8%. In the case of `NC(=O)c1cc([N+](=O)[O-])cc([N+](=O)[O-])c1N` it was inactive: -7.6%; in that of `CN1CCCC(OC(=O)C(c2ccccc2)c2ccccc2)C1` (stereo not given), inactive: -15.3%; in that of `Clc1ccc(Cl)c(NC2=NCC(CBr)S2)c1` (stereo not given), inactive: 7.6%. In the case of `CN(C)CCOC(=O)C(O)(c1ccccc1)C1CCCC1` (stereo not given) it was inactive: -2.1%.

Turning to `COc1ccccc1OP(=O)(Nc1ccc(C)cn1)Oc1ccccc1OC`, the inhibition is inactive: -9.9%. Turning to `COc1ccc(OP(C)(=O)Nc2ccccn2)cc1` (stereo not given), the inhibition was inactive: -1.5%. For `Cc1ccc(OP(=O)(Nc2nccs2)Oc2ccc(C)cc2)cc1`, the inhibition was inactive: 2.4%. The value for `CCN(/C(=N/P(=O)(N1CCOCC1)N1CCOCC1)N1CCOCC1)c1ccc(OC)cc1` was inactive: -6.1%; that for `COc1ccccc1OP(C)(=O)Nc1ccccc1Br` (stereo not given) was inactive: -2.5%; that for `CC(C)(C)c1ccc(OP(C)(=O)O)cc1` was inactive: 5.9%. Regarding `Nc1ccc([As](=O)(O)c2ccc(N)cc2)cc1`, the inhibition was inactive: 6.9%. With `C[N+]1=C2C=CC=CC=C2SC12C([N+](=O)[O-])=CC([N+](=O)[O-])=C[C-]2[N+](=O)[O-]` (stereo not given), the inhibition was inactive: 1.9%. The value for `CN(C)C(=O)c1c([N+](=O)[O-])cc([N+](=O)[O-])cc1[N+](=O)[O-]` was inactive: -3.6%; that for `CC(C)=N/N=C(\N)N[N+](=O)[O-]` was inactive: -2.9%; that for `CN(C)C(=O)OCCc1n(C)cc[n+]1C` was inactive: 17.4%. In the case of `COc1ccc(C2=NCC(CBr)S2)cc1` (stereo not given), the inhibition is inactive: -2.3%. The value for `COc1ccc(OP(C)(=O)Nc2ccc(Br)cc2)cc1` (stereo not given) was inactive: 13.9%; that for `Cc1ccc(NP(=O)(Oc2ccccc2)Oc2ccccc2)nc1` was inactive: 6.3%. Take `CCc1ccc(OP(C)(=O)Nc2cccnc2)cc1` (stereo not given): the inhibition was inactive: -17.4%. In the case of `O=[N+]([O-])c1cc([N+](=O)[O-])c(CCNc2ccccc2)c([N+](=O)[O-])c1` it was inactive: 1.6%; in that of `O=[N+]([O-])c1cccc2n[nH]nc12`, inactive: -1.6%; in that of `O=C(OCCCN1CCCC1)C(O)(c1ccccc1)C1CCCCC1` (stereo not given), inactive: 22.1%. The value for `O=[N+]([O-])c1ncn(CCn2ncnc2[N+](=O)[O-])n1` was inactive: -2.3%; that for `CC(C)(C)C(=O)NC(Sc1ccncn1)C(Cl)(Cl)Cl` (stereo not given) was inactive: 0.8%. In the case of `O=C(O)CNc1ccc([As](=O)(O)O)cc1` it was inactive: 9%; in that of `O=[N+]([O-])c1cccc(NC2=NCC(CBr)S2)c1` (stereo not given), inactive: -10%; in that of `CP(=O)(OC12CC3CC(CC(C3)C1)C2)OC12CC3CC(CC(C3)C1)C2`, inactive: -25.6%.

As for `CCOC(=O)c1ccc(NP(C)(=O)Oc2ccc(Cl)cc2)cc1` (stereo not given), the inhibition is inactive: -7.3%.

On to `O=C(Nc1cc([As](=O)(O)O)ccc1O)c1ccccc1`, for which the inhibition is inactive: 22.8%. The value for `CP(=S)(Nn1cnnc1)Oc1ccccc1` (stereo not given) was inactive: -0.2%; that for `CCOC(=O)Nc1cccc([As](=O)(O)O)c1` was inactive: -1%; that for `O=P(Nc1ccccn1)(c1cccc2ccccc12)c1cccc2ccccc12` was inactive: -5.8%.

By inhibition is commonly meant the relative decrease from the control value, in per cent.
